## Measured fraction unbound values of organic chemicals

From the experimental data distributed with OPERA 2.9.

The unbound fraction in human plasma runs from 0 (all bound) to 1 (all free). "–" marks a cell with nothing listed here.

SMILES,name,fraction unbound
CCCN(CC)C(CC)C(=O)Nc1c(C)cccc1C (stereo not drawn),Etidocaine,0.06
C[C@]12CCC(=O)C=C1[C@@H]1C[C@@H]1[C@H]1[C@@H]3[C@@H]4C[C@@H]4[C@@]4(CCC(=O)O4)[C@@]3(C)CC[C@@H]12,Drospirenone,0.03
CC(C)(C)N1CCC(c2ccccc2)(c2ccccc2)CC1,Budipine,0.04
CN[C@@H]1[C@@H](O)[C@@H](O[C@@H]2[C@@H](O)[C@H](O[C@H]3O[C@H](CN)[C@@H](O)[C@H](O)[C@H]3O)[C@@H](N)C[C@H]2NC(=O)C(O)CN)OC[C@]1(C)O (stereo partly drawn),Isepamicin,0.95
C[C@@H](Oc1ccc(cc1)Oc1[n]cc(Cl)cc1F)C(=O)OCC#C,–,0.0148
COC(=O)CCC(=O)OC,Dimethyl succinate,0.9999
Cc1ccc(cc1)/C(=CCN1CCCC1)/c1cccc[n]1,–,0.254
CCC1OC=CC(=O)C=1O,–,0.606
CCc1ccc(CCOc2ccc(CC3SC(=O)NC3=O)cc2)nc1 (stereo not drawn),Pioglitazone,0.008916
N#Cc1cc(-c2n[nH]c(-c3ccncc3)n2)ccn1,Topiroxostat,0.151
Oc1cccc(O)c1,Resorcinol,0.7448
CC[N+](C)(C)Cc1ccccc1Br,Bretylium,0.93
CC(=O)O[C@H]1C[C@@H]2CC[C@@H]3[C@H](CC[C@@]4(C)[C@H]3C[C@H]([N+]3(C)CCCCC3)[C@@H]4OC(C)=O)[C@@]2(C)C[C@@H]1N1CCCCC1.[Br-],Vecuronium bromide,0.25
CCC1=C[C@@H]2C[N@](C1)Cc1c([nH]c3ccccc13)[C@@](C(=O)OC)(c1cc3c(cc1OC)N(C)[C@H]1[C@@](O)(C(=O)OC)[C@H](OC(C)=O)[C@]4(CC)C=CCN5CC[C@]31[C@@H]54)C2,Vinorelbine,0.69
CCOC(=O)c1c(N)sc2c1CCN(Cc1ccccc1)C2,Tinoridine,0.08
N=c1n[n+]([O-])c2ccccc2n1O,Tirapazamine,0.81
Oc1ccc(C2CNCCc3c2cc(O)c(O)c3Cl)cc1 (stereo not drawn),Fenoldopam,0.12
CC(=O)OCC(=O)[C@@]12N=C(C)O[C@@H]1C[C@H]1[C@@H]3CCC4=CC(=O)C=C[C@]4(C)[C@H]3[C@@H](O)C[C@@]12C,Deflazacort,0.6
c1ccc2ncccc2c1,Quinoline,0.2036
C=CC1CS[C@@H]2[C@H](NC(=O)/C(=NO)/c3c[s]c(N)[n]3)C(=O)N2C=1C(O)=O,–,0.35
O=C(OCC(O)CO)c1ccccc1Nc1ccnc2c(C(F)(F)F)cccc12 (stereo not drawn),Floctafenine,0.15
CCCCC(CC)COC(=O)CCCCCCCC(=O)OCC(CC)CCCC (stereo not drawn),Bis(2-ethylhexyl) nonanedioate,0.03126
COc1ccc2ncc(=O)n(CCN3CC[C@H](NCc4ccc5c(n4)NC(=O)CO5)[C@H](O)C3)c2c1,–,0.08531
CCC(=O)OC(OP(=O)(CCCCc1ccccc1)CC(=O)N1C[C@H](C2CCCCC2)C[C@H]1C(=O)O)C(C)C (stereo partly specified),Fosinopril,0.05
CN(C)CCc1c[nH]c2ccc(CS(=O)(=O)N3CCCC3)cc12,Almotriptan,0.6133
Cc1cc(Nc2nc(O[C@H](C)c3ccc(F)cn3)c(C#N)nc2C)n[nH]1,–,0.03607
Cc1nc[nH]c1CC1CCc2c(C)c3ccccc3n2C1=O (stereo not drawn),FK 1052,0.02224
NS(=O)(=O)c1cc2c(cc1C(F)(F)F)NC(Cc1ccccc1)NS2(=O)=O (stereo not drawn),Bendroflumethiazide,0.06
NCC[C@H](O)C(=O)N[C@@H]1C[C@H](N)[C@@H](O[C@H]2O[C@H](CN)[C@@H](O)[C@H](O)[C@H]2O)[C@H](O)[C@H]1O[C@H]1O[C@H](CO)[C@@H](O)[C@H](N)[C@H]1O,Amikacin,0.895
CS(=O)(=O)O.Cc1nccn1-c1ccc(Sc2cccc(C3(C(N)=O)CCOCC3)c2)cc1,–,0.06671
C[C@@H](c1ncncc1F)[C@](O)(Cn1cncn1)c1ccc(F)cc1F,Voriconazole,0.4738
COc1cc2c(cc1OC)CN(C(=O)[C@H](C)N[C@@H](CCc1ccccc1)C(=O)O)[C@H](C(=O)O)C2,Moexiprilat,0.5
COC(=O)C1=C(C#N)NC(C)=C(C(=O)OC(C)C)C1c1cccc([N+](=O)[O-])c1 (stereo not drawn),Nilvadipine,0.01117
CO[C@H]1O[C@@H]2O[C@@]3(C)CC[C@H]4[C@H](C)CC[C@@H]([C@H]1C)[C@@]24OO3,Artemether,0.5
CC1(C)[C@H](NC(=O)/C(=N\OCc2cc(=O)c(O)cn2O)c2csc(N)n2)C(=O)N1OS(=O)(=O)O,–,0.3088
CN(C)c1ccc(C(=N)c2ccc(N(C)C)cc2)cc1.Cl,Auramine hydrochloride,0.107
CCCS(=O)c1ccc2[nH]c(NC(=O)OC)nc2c1 (stereo not drawn),Albendazole oxide,0.3
CC(=O)OCC(=O)[C@@]1(O)CC[C@H]2[C@@H]3CCC4=CC(=O)CC[C@]4(C)[C@H]3C(=O)C[C@@]21C,Cortisone acetate,0.05
C/C(/C[C@@H]1OC[C@H](C[C@@H]2O[C@H]2[C@@H](C)[C@H](C)O)[C@@H](O)[C@H]1O)=CC(=O)OCCCCCCCCC(O)=O,–,0.04
CCCCC[C@H](O)/C=C/[C@H]1[C@H](O)CC(=O)[C@@H]1CC=CCCCC(=O)O,Dinoprostone,0.27
CN(C)CCN(C)n1cc(-c2ccccc2)c2ccccc21,Binedaline,0.04
CSc1ccc(/C=C2/C(C)=C(CC(=O)O)c3cc(F)ccc32)cc1,Sulindac sulfide,0.06
Cc1c(N(C)CS(=O)(=O)[O-])c(=O)n(-c2ccccc2)n1C.[Na+],Dipyrone,0.4
Oc1cc2ccccc2c2ccccc12,9-Phenanthrol,0.005435

The 3 highest values of fraction unbound among the entries above:

SMILES,name,fraction unbound
COC(=O)CCC(=O)OC,Dimethyl succinate,0.9999
CN[C@@H]1[C@@H](O)[C@@H](O[C@@H]2[C@@H](O)[C@H](O[C@H]3O[C@H](CN)[C@@H](O)[C@H](O)[C@H]3O)[C@@H](N)C[C@H]2NC(=O)C(O)CN)OC[C@]1(C)O (stereo partly drawn),Isepamicin,0.95
CC[N+](C)(C)Cc1ccccc1Br,Bretylium,0.93

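The numbers are reported measurements, compiled and curated for the OPERA QSAR suite. The files give a single number for a compound and property, which may rest on several reports. How each value was measured is not recorded, so precision varies. A value may pool stereoisomers or salt forms, and the file does not say which form was measured. Some entries may be limits or estimates that an upstream database listed as plain numbers.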